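Method: 48-hour compound exposure of cells in 96-well plates, five concentrations, linear interpolation of endpoints. Abbreviation: GI50, concentration required for 50% inhibition of growth. TGI denotes the concentration required for complete inhibition of growth.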
Assays:
Assay in all cases: NCI anticancer screen, dose series, 48 h
HCC-2998 colon = test system: HCC-2998 colon
NCI/ADR-RES ovarian = test system: NCI/ADR-RES ovarian
SN12C renal = test system: SN12C renal
HCT-15 colon = test system: HCT-15 colon
BT-549 breast = test system: BT-549 breast
OVCAR-8 ovarian = test system: OVCAR-8 ovarian
HCT-116 colon = test system: HCT-116 colon
ACHN renal = test system: ACHN renal
NCI-H322M lung = test system: NCI-H322M lung
HOP-92 NSCLC = test system: HOP-92 NSCLC
NCI-H23 lung = test system: NCI-H23 lung
M14 melanoma = test system: M14 melanoma
UO-31 renal = test system: UO-31 renal
TK-10 renal = test system: TK-10 renal
HOP-62 NSCLC = test system: HOP-62 NSCLC
SK-MEL-2 melanoma = test system: SK-MEL-2 melanoma
SNB-75 CNS = test system: SNB-75 CNS
MCF7 breast = test system: MCF7 breast
OVCAR-3 ovarian = test system: OVCAR-3 ovarian
MDA-MB-435 = test system: MDA-MB-435
KM12 colon = test system: KM12 colon
CAKI-1 renal = test system: CAKI-1 renal
A498 renal = test system: A498 renal
SF-268 CNS = test system: SF-268 CNS
EKVX NSCLC = test system: EKVX NSCLC
HT29 colon = test system: HT29 colon
SK-MEL-28 melanoma = test system: SK-MEL-28 melanoma
SW-620 colon = test system: SW-620 colon
MDA-MB-231 breast = test system: MDA-MB-231 breast
786-0 renal = test system: 786-0 renal
SK-OV-3 ovarian = test system: SK-OV-3 ovarian
UACC-62 melanoma = test system: UACC-62 melanoma
HL-60(TB) leukemia = test system: HL-60(TB) leukemia
IGROV1 ovarian = test system: IGROV1 ovarian
LOX IMVI melanoma = test system: LOX IMVI melanoma
CCRF-CEM leukemia = test system: CCRF-CEM leukemia
MALME-3M melanoma = test system: MALME-3M melanoma
U251 CNS = test system: U251 CNS
A549 NSCLC = test system: A549 NSCLC
RXF 393 renal = test system: RXF 393 renal
UACC-257 melanoma = test system: UACC-257 melanoma
PC-3 prostate = test system: PC-3 prostate
SF-295 CNS = test system: SF-295 CNS
OVCAR-4 ovarian = test system: OVCAR-4 ovarian
T-47D breast = test system: T-47D breast
NCI-H460 lung = test system: NCI-H460 lung
MDA-N = test system: MDA-N
HS 578T breast = test system: HS 578T breast
NCI-H522 lung = test system: NCI-H522 lung
SNB-19 CNS = test system: SNB-19 CNS
DU-145 prostate = test system: DU-145 prostate
OVCAR-5 ovarian = test system: OVCAR-5 ovarian
MOLT-4 leukemia = test system: MOLT-4 leukemia
SF-539 CNS = test system: SF-539 CNS
SR leukemia = test system: SR leukemia
NCI-H226 lung = test system: NCI-H226 lung
COLO 205 colon = test system: COLO 205 colon
SK-MEL-5 melanoma = test system: SK-MEL-5 melanoma
K-562 leukemia = test system: K-562 leukemia

COc1ccc2c3c1O[C@H]1C4(OC)C=CC5(C6C(=O)N(c7ccccc7)C(=O)C64)C(C2)N(C)CCC315 (some centres undefined)
TGI (HCC-2998 colon): > 100 µM
TGI (NCI/ADR-RES ovarian): > 100 µM
TGI (SN12C renal): > 100 µM
TGI (HCT-15 colon): > 100 µM
TGI (BT-549 breast): > 100 µM
TGI (OVCAR-8 ovarian): > 100 µM
TGI (HCT-116 colon): > 100 µM
TGI (ACHN renal): > 100 µM
TGI (NCI-H322M lung): > 100 µM
TGI (HOP-92 NSCLC): > 100 µM
TGI (NCI-H23 lung): > 100 µM
TGI (M14 melanoma): > 100 µM
TGI (UO-31 renal): > 100 µM
TGI (TK-10 renal): > 100 µM
TGI (HOP-62 NSCLC): 85.3 µM
TGI (SK-MEL-2 melanoma): > 100 µM
TGI (SNB-75 CNS): 36.5 µM
TGI (MCF7 breast): > 100 µM
TGI (OVCAR-3 ovarian): > 100 µM
TGI (MDA-MB-435): > 100 µM
TGI (KM12 colon): > 100 µM
TGI (CAKI-1 renal): > 100 µM
TGI (A498 renal): > 100 µM
TGI (SF-268 CNS): > 100 µM
TGI (EKVX NSCLC): > 100 µM
TGI (HT29 colon): > 100 µM
TGI (SK-MEL-28 melanoma): > 100 µM
TGI (SW-620 colon): > 100 µM
TGI (MDA-MB-231 breast): > 100 µM
TGI (786-0 renal): > 100 µM
TGI (SK-OV-3 ovarian): > 100 µM
TGI (UACC-62 melanoma): > 100 µM
TGI (HL-60(TB) leukemia): > 100 µM
TGI (IGROV1 ovarian): > 100 µM
TGI (LOX IMVI melanoma): > 100 µM
TGI (CCRF-CEM leukemia): > 100 µM
TGI (MALME-3M melanoma): > 100 µM
TGI (U251 CNS): > 100 µM
TGI (A549 NSCLC): > 100 µM
TGI (RXF 393 renal): 38.2 µM
TGI (UACC-257 melanoma): > 100 µM
TGI (PC-3 prostate): > 100 µM
TGI (SF-295 CNS): > 100 µM
TGI (OVCAR-4 ovarian): > 100 µM
TGI (T-47D breast): > 100 µM
TGI (NCI-H460 lung): > 100 µM
TGI (MDA-N): > 100 µM
TGI (HS 578T breast): > 100 µM
TGI (NCI-H522 lung): > 100 µM
TGI (SNB-19 CNS): > 100 µM
TGI (DU-145 prostate): > 100 µM
TGI (OVCAR-5 ovarian): > 100 µM

Cc1ccc2c(c1)C(C(Cl)(Cl)Cl)OP(=O)(N(CCCl)CCCl)O2 (centres undefined)
GI50 (HCC-2998 colon): 80.4 µM
TGI (HCC-2998 colon): > 100 µM
GI50 (NCI/ADR-RES ovarian): 4.07 µM
TGI (NCI/ADR-RES ovarian): > 100 µM
GI50 (MOLT-4 leukemia): > 100 µM
TGI (MOLT-4 leukemia): > 100 µM
GI50 (SN12C renal): 27.8 µM
TGI (SN12C renal): > 100 µM
GI50 (SF-539 CNS): > 100 µM
TGI (SF-539 CNS): > 100 µM
GI50 (HCT-15 colon): 6.66 µM
TGI (HCT-15 colon): > 100 µM
GI50 (BT-549 breast): 27.5 µM
TGI (BT-549 breast): > 100 µM
GI50 (OVCAR-8 ovarian): 6.02 µM
TGI (OVCAR-8 ovarian): > 100 µM
GI50 (HCT-116 colon): 8.68 µM
TGI (HCT-116 colon): > 100 µM
GI50 (ACHN renal): 9.46 µM
TGI (ACHN renal): > 100 µM
GI50 (NCI-H322M lung): > 100 µM
TGI (NCI-H322M lung): > 100 µM
GI50 (HOP-92 NSCLC): 5.73 µM
TGI (HOP-92 NSCLC): 74.6 µM
GI50 (NCI-H23 lung): 11.6 µM
TGI (NCI-H23 lung): > 100 µM
GI50 (SR leukemia): > 100 µM
TGI (SR leukemia): > 100 µM
GI50 (M14 melanoma): 5.26 µM
TGI (M14 melanoma): > 100 µM
GI50 (NCI-H226 lung): 26.5 µM
TGI (NCI-H226 lung): > 100 µM
GI50 (UO-31 renal): 4.85 µM
TGI (UO-31 renal): > 100 µM
GI50 (TK-10 renal): 25.8 µM
TGI (TK-10 renal): > 100 µM
GI50 (HOP-62 NSCLC): 16.7 µM
TGI (HOP-62 NSCLC): > 100 µM
GI50 (SK-MEL-2 melanoma): 3.04 µM
TGI (SK-MEL-2 melanoma): 45.8 µM
GI50 (SNB-75 CNS): 46 µM
TGI (SNB-75 CNS): > 100 µM
GI50 (MCF7 breast): > 100 µM
TGI (MCF7 breast): > 100 µM
GI50 (OVCAR-3 ovarian): 8.4 µM
TGI (OVCAR-3 ovarian): > 100 µM
GI50 (MDA-MB-435): > 100 µM
TGI (MDA-MB-435): > 100 µM
GI50 (KM12 colon): 4.66 µM
TGI (KM12 colon): > 100 µM
GI50 (COLO 205 colon): 23.3 µM
TGI (COLO 205 colon): > 100 µM
GI50 (CAKI-1 renal): 6.41 µM
TGI (CAKI-1 renal): > 100 µM
GI50 (A498 renal): > 100 µM
TGI (A498 renal): > 100 µM
GI50 (SF-268 CNS): 91.8 µM
TGI (SF-268 CNS): > 100 µM
GI50 (EKVX NSCLC): > 100 µM
TGI (EKVX NSCLC): > 100 µM
GI50 (HT29 colon): 42.2 µM
TGI (HT29 colon): > 100 µM
GI50 (SK-MEL-28 melanoma): > 100 µM
TGI (SK-MEL-28 melanoma): > 100 µM
GI50 (SW-620 colon): > 100 µM
TGI (SW-620 colon): > 100 µM
GI50 (MDA-MB-231 breast): 85.1 µM
TGI (MDA-MB-231 breast): > 100 µM
GI50 (786-0 renal): 54.7 µM
TGI (786-0 renal): > 100 µM
GI50 (SK-OV-3 ovarian): 57.6 µM
TGI (SK-OV-3 ovarian): > 100 µM
GI50 (UACC-62 melanoma): 5.73 µM
TGI (UACC-62 melanoma): > 100 µM
GI50 (HL-60(TB) leukemia): 4.72 µM
TGI (HL-60(TB) leukemia): > 100 µM
GI50 (LOX IMVI melanoma): 18.2 µM
TGI (LOX IMVI melanoma): > 100 µM
GI50 (SK-MEL-5 melanoma): 5.97 µM
TGI (SK-MEL-5 melanoma): > 100 µM
GI50 (CCRF-CEM leukemia): 3.51 µM
TGI (CCRF-CEM leukemia): > 100 µM
GI50 (U251 CNS): 33 µM
TGI (U251 CNS): > 100 µM
GI50 (A549 NSCLC): 6.41 µM
TGI (A549 NSCLC): > 100 µM
GI50 (RXF 393 renal): 31.4 µM
TGI (RXF 393 renal): > 100 µM
GI50 (UACC-257 melanoma): 40 µM
TGI (UACC-257 melanoma): > 100 µM
GI50 (PC-3 prostate): 4.57 µM
TGI (PC-3 prostate): > 100 µM
GI50 (SF-295 CNS): 10.5 µM
TGI (SF-295 CNS): > 100 µM
GI50 (OVCAR-4 ovarian): 9.54 µM
TGI (OVCAR-4 ovarian): > 100 µM
GI50 (T-47D breast): 4.58 µM
TGI (T-47D breast): > 100 µM
GI50 (K-562 leukemia): 3.08 µM
TGI (K-562 leukemia): > 100 µM
GI50 (NCI-H460 lung): 4.37 µM
TGI (NCI-H460 lung): > 100 µM
GI50 (MDA-N): 74.9 µM
TGI (MDA-N): > 100 µM
GI50 (HS 578T breast): 4.51 µM
TGI (HS 578T breast): > 100 µM
GI50 (NCI-H522 lung): 6.53 µM
TGI (NCI-H522 lung): > 100 µM
GI50 (DU-145 prostate): 82.2 µM
TGI (DU-145 prostate): > 100 µM
GI50 (OVCAR-5 ovarian): > 100 µM
TGI (OVCAR-5 ovarian): > 100 µM

From PubChem BioAssay (NCI)
